Data on one substance can be found in patent publication US20110039815A1, “MACROCYCLIC METAL COMPLEXES FOR THEIR USE AS ANTICANCER AGENTS” (priority 2005, published 2011).

^Me3TacnRhCl3 [formula 8]: the “solubility in 0.7% saline solution” value (0.7% saline solution) is recorded as “limited solubility”. In addition, the “solubility in physiological saline solution” value (physiological saline solution) is reported as “up to 2.1×10^−2 molar”.
